Protein sequences, listed by entry. Tags and fused reporters are not part of them. Lines headed by an entry give the natural chain unless they say otherwise; changes in a name come on top.
UniProt P97266, whole entry: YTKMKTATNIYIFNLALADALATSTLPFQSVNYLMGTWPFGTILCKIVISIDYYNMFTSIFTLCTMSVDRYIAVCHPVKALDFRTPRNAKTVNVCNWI
UniProt P41144: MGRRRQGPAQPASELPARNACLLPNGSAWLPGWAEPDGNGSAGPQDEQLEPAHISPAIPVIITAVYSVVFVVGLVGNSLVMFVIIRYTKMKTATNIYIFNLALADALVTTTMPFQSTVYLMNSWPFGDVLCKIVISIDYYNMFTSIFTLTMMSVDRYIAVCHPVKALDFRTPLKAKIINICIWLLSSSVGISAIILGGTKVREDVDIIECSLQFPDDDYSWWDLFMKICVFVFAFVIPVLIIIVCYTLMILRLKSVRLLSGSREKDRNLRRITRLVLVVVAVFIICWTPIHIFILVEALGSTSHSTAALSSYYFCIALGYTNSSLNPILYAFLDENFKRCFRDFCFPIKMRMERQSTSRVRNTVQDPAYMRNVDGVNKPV

In ChEMBL document CHEMBL4406853 (Eur J Med Chem, 2019):

How the values were obtained:
Type in all cases: cell membranes
[1] = target: Mu-type opioid receptor (Cavia porcellus) (UniProt P97266); test: Potency index, ratio of morphine Ki to compound Ki for mu opioid receptor in guinea pig brain membranes
[2] = target: Kappa-type opioid receptor (Cavia porcellus) (UniProt P41144); test: Potency index, ratio of morphine Ki to compound Ki for kappa opioid receptor in guinea pig brain membranes
Cavia porcellus = species: Cavia porcellus; test: Potency index, ratio of morphine Ki to compound Ki for delta opioid receptor in guinea pig brain membranes

Measured: Ratio Ki

CC[C@@H]1CN2CC[C@@]3(O)C(=Nc4cccc(OC)c43)[C@@H]2C[C@@H]1/C(=C\OC)C(=O)OC
10: all assays above
